From PubChem BioAssay AID639 (Emory University Molecular Libraries Screening Center, 2007) come the findings set out here.

By UniProt entry, the sequences of proteins in these tests, tags left out.
UniProt P03372, whole entry, looked up: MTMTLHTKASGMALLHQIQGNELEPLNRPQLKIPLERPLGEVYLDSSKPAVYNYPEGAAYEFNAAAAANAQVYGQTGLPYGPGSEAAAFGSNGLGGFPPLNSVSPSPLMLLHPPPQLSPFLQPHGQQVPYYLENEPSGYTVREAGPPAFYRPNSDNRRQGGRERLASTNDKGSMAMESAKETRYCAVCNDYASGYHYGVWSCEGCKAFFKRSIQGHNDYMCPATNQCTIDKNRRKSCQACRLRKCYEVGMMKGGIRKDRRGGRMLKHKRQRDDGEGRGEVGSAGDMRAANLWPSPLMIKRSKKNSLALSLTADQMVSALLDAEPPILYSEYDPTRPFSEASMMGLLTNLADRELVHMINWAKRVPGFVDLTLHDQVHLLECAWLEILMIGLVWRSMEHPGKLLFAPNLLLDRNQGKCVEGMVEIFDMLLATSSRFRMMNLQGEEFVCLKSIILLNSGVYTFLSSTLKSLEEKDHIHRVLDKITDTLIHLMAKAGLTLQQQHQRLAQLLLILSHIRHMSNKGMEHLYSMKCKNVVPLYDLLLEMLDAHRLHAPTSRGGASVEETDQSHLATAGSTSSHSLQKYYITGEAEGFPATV

The entries are a selection whose mix differs from that of the whole data set. Active and inactive are the calls of the source. Cut-off read from the data, not from the text of the source: active = activity above about 200%; inactive = the rest.

For the test, the target named is Estrogen receptor (Homo sapiens) (UniProt P03372). In words: ERα coactivator recruitment potentiators – biochemical, TR-FRET, ERα LBD, low estradiol, primary screen (AID 639).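 Note: binding measured in presence of low estradiol as agonist stimulus; 0% = peptide alone without receptor and 100% = receptor with peptide.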 The following applies: TR-FRET ERalpha-LBD/SRC-Cy5 coactivator binding, 2 h; at 25.6 µM; stronger effect = higher value; 100 = basal binding, no effect. (TR-FRET usually uses a lanthanide donor and a delayed reading to cut background.)
For `c1nnnn1CCn1cnnn1`, the coactivator binding (% of control) is inactive: 120%.
As to `O=P(Nc1nccs1)(c1ccccc1)c1ccccc1`, the coactivator binding (% of control) was inactive: 104%.
As for `O=C(OC1CN2CCC1CC2)c1cccc(Cl)c1` (configuration not stated), the coactivator binding (% of control) was inactive: 76.5%.
Regarding `COC(=O)c1cc2c(s1)N=C(c1ccccc1)N(C)P2(=O)N1CCOCC1` (configuration not stated), the coactivator binding (% of control) was inactive: 99%.
With `O=P1(Nc2nc3ccc(Cl)cc3s2)COc2ccccc2O1` (configuration not stated) the figure was inactive: 104%; with `CN1CCCC(OC(=O)C(c2ccccc2)c2ccccc2)C1` (configuration not stated), inactive: 119%; with `Cc1c2non([O-])c-2c(C)[n+](=O)[n+]1[O-]`, inactive: 95.8%.
Turning to `Oc1ccccc1CNc1ccccn1`, the coactivator binding (% of control) was inactive: 117%.
Next, `CCOP(=O)(Nc1ccccc1)OCC`: inactive: 92.8%; `O=[N+]([O-])c1cccc2n[nH]nc12`: inactive: 106%.
As to `CCc1nc2c(n1)c1c(non1O)c1c2no[n+]1[O-]`, the coactivator binding (% of control) was inactive: 96%.
Next, `CC1CCN(C(=O)Oc2c(Cl)cc(Cl)c3cccnc23)CC1`: inactive: 92.6%.
Next, `O=C(COc1ccccc1)OC1CN2CCC1CC2` (configuration not stated): inactive: 110%; `COP1(=S)c2c(C)nn(CCC#N)c2N=C(c2ccc(F)cc2)N1C` (configuration not stated): inactive: 121%.
For `CCC(C)N(CC(C)C)C(=S)SC(NC(C)=O)C(Cl)(Cl)Cl` (configuration not stated), the coactivator binding (% of control) is inactive: 113%.
Next, `ClCCSc1nnc(-c2cccnc2)o1`: inactive: 100%; `O=C(OC1CN2CCC1CC2)C12CC3CC(CC(C3)C1)C2` (configuration not stated): inactive: 107%.
With `Cc1cccc(OCC(=O)OC2CN3CCC2CC3)c1` (configuration not stated), the coactivator binding (% of control) is inactive: 88.1%.
For the compound `CCOP1(=S)c2c(C)nn(CCC#N)c2N=C(c2ccccc2F)N1C` (configuration not stated), the coactivator binding (% of control) was inactive: 103%.
With `CCOP1(=S)c2c(C)nn(CCC#N)c2N=C(c2ccc(F)cc2)N1C` (configuration not stated) the figure was inactive: 96.8%; with `Cc1nn(-c2ccccc2)c2c1P(=O)(N1CCOCC1)N(C)C(c1ccccc1)=N2` (configuration not stated), inactive: 101%; with `Cc1ccc(OCC(=O)OC2CN3CCC2CC3)cc1` (configuration not stated), inactive: 108%.
With `O=P1(Nc2ccc(Br)cn2)COc2ccccc2OC1` the figure was inactive: 87.2%.
With `O=P1(Nc2ncccn2)COc2ccccc2OC1` the figure was inactive: 99.5%.
Turning to `Clc1n[nH]nc1-c1nn[nH][15n]1`, the coactivator binding (% of control) is inactive: 124%.
With `O=P1(Nc2ccccn2)COc2ccccc2OC1` the figure was inactive: 126%.
Consider `CC1(CBr)Cn2c(nc3ccccc3c2=O)S1` (configuration not stated), for which the coactivator binding (% of control) was inactive: 98.5%.
